Data from ChEMBL document CHEMBL1131451, “Structural and functional analyses of benzamidine-based inhibitors in complex with trypsin: implications for the inhibition of factor Xa, tPA, and urokinase” (J Med Chem, 1998).

Chains of the proteins cited; added tags and fusions are not shown.
UniProt P00750, whole entry: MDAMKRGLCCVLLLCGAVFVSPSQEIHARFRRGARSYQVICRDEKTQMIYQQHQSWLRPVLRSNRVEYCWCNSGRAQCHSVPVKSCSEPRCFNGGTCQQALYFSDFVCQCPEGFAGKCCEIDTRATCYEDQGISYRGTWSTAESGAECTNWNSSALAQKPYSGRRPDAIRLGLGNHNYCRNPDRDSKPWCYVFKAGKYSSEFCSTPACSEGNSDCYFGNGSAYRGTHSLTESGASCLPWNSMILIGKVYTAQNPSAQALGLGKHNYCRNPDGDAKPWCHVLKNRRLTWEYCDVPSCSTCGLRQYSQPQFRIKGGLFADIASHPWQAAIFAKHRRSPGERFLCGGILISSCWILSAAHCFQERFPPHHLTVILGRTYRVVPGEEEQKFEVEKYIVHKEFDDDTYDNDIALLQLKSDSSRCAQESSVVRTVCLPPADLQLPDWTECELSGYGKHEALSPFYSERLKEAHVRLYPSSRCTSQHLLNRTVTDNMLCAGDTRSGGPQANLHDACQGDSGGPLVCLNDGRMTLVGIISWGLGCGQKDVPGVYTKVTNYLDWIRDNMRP

Biological target: Tissue-type plasminogen activator (Homo sapiens, UniProt P00750)
Experiment: Inhibitory activity against human tissue-type plasminogen activator expressed as dissociation constant

Ki: 910 µM
Compound: N=C(N)c1ccccc1 [BENZAMIDINE]
